Reference: ChEMBL document CHEMBL5727998, “8-amino-2-oxo-1,3-diaza-spiro-[4.5]-decane derivatives” (2020)

Protein sequences, listed by entry. Tags and fused reporters are not part of them. Lines headed by an entry give the natural chain unless they say otherwise; changes in a name come on top.
UniProt P35372, whole entry, looked up: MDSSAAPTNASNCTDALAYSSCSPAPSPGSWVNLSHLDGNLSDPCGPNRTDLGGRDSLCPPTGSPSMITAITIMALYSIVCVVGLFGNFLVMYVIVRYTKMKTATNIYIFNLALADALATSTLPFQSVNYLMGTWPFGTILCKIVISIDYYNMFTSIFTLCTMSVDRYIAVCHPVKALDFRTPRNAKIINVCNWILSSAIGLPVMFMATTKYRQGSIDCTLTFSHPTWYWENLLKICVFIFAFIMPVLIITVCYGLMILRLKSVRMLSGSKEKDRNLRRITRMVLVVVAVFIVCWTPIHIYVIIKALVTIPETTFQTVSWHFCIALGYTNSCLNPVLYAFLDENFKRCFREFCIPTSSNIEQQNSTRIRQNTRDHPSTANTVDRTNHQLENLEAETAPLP
UniProt P41146: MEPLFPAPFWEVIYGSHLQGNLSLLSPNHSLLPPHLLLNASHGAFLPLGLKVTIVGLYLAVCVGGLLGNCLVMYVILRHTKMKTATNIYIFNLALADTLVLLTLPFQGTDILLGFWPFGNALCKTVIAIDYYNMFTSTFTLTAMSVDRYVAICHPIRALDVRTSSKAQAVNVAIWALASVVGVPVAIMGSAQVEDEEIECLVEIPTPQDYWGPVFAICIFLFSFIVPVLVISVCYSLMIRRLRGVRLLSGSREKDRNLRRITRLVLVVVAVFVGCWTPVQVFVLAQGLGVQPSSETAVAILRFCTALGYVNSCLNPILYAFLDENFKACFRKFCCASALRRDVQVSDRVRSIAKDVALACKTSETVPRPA

Key:
Mu-type opioid receptor = Mu-type opioid receptor (Homo sapiens, UniProt P35372); experiment: Receptor Binding Assay: The hMOP receptor binding assay was performed as homogeneous SPA-assay (scintillation proximity assay) using the assay buffer 50 mM TRIS-HCl (pH 7.4) supplemented with 0.052 mg/ml bovine serum albumin (Sigma-Aldrich Co. St. Louis. Mo.). The final assay volume (250 ul/well) included 1 nM of [N-allyl-2.3-3H]naloxone as ligand (PerkinElmer Life Sciences. Inc. Boston. Mass. USA
Nociceptin receptor = Nociceptin receptor (Homo sapiens, UniProt P41146); experiment: Receptor Binding Assay: The hNOP receptor binding assay was performed as homogeneous SPA-assay (scintillation proximity assay) using the assay buffer 50 mM TRIS-HCl. 10 mM MgCl2. 1 mM EDTA (pH 7.4). The final assay volume (250 μl/well) included 0.5 nM of [leucyl-3H]nociceptin as ligand (PerkinElmer Life Sciences. Inc. Boston. Mass. USA). and either test compound in dilution series or 1 μM unlabell

For `COCCOCCOCCOCCOCCOCCOCCN1C[C@]2(CC[C@](c3ccccc3)(N(C)C)CC2)N(CC2CCC2)C1=O`, the Ki (Mu-type opioid receptor) was 305 nM.

Compound `COCCOCCOCCOCCN1C[C@]2(CC[C@](c3ccccc3)(N(C)C)CC2)N(CC2CCC2)C1=O` has a Ki (Mu-type opioid receptor) of 69.8 nM.

Work on `CN[C@]1(c2ccccc2)CC[C@]2(CC1)CN(CCS(C)(=O)=O)C(=O)N2CC1CCC1` yielded a Ki (Nociceptin receptor) of 9.5 nM and a Ki (Mu-type opioid receptor) of 87 nM.

Work on `CN(C)[C@]1(c2ccccc2)CC[C@]2(CC1)CN(CCCC#N)C(=O)N2CC1CCC1` yielded a Ki (Mu-type opioid receptor) of 99.7 nM.

`CN(C)[C@]1(c2ccccc2)CC[C@]2(CC1)CN(CC(C)(C)C#N)C(=O)N2CC1CCC1` gave a Ki (Mu-type opioid receptor) of 84 nM.

For `COCCOCCOCCOCCOCCOCCN1C[C@]2(CC[C@](c3ccccc3)(N(C)C)CC2)N(CC2CCC2)C1=O`, the Ki (Mu-type opioid receptor) was 755 nM.

`CNC(=O)CCCN1C[C@]2(CC[C@](c3ccccc3)(N(C)C)CC2)N(CC2CCC2)C1=O` gave a Ki (Nociceptin receptor) of 5.8 nM and a Ki (Mu-type opioid receptor) of 40.5 nM.

For `COCCOCCOCCOCCOCCOCCOCCOCCN1C[C@]2(CC[C@](c3ccccc3)(N(C)C)CC2)N(CC2CCC2)C1=O`, the Ki (Nociceptin receptor) was 45 nM.

Work on `COCCN1C[C@]2(CC[C@](c3ccccc3)(N(C)C)CC2)N(CC2CCC2)C1=O` yielded a Ki (Mu-type opioid receptor) of 58 nM.

Work on `CN[C@]1(c2ccccc2)CC[C@]2(CC1)CN(CCS(C)(=O)=O)C(=O)N2CC1(O)CCC1` yielded a Ki (Nociceptin receptor) of 83 nM and a Ki (Mu-type opioid receptor) of 637 nM.

For `CN(C)[C@]1(c2ccccc2)CC[C@]2(CC1)CN(CCS(C)(=O)=O)C(=O)N2CC1(O)CCC1`, the Ki (Nociceptin receptor) was 13 nM and the Ki (Mu-type opioid receptor) was 210 nM.

`COCCOCCOCCN1C[C@]2(CC[C@](c3ccccc3)(N(C)C)CC2)N(CC2CCC2)C1=O` gave a Ki (Nociceptin receptor) of 7.7 nM and a Ki (Mu-type opioid receptor) of 39.5 nM.

Work on `COCCOCCOCCOCCOCCN1C[C@]2(CC[C@](c3ccccc3)(N(C)C)CC2)N(CC2CCC2)C1=O` yielded a Ki (Nociceptin receptor) of 19 nM.

`COC(=O)CCCN1C[C@]2(CC[C@](c3ccccc3)(N(C)C)CC2)N(CC2CCC2)C1=O` was tested, and the Ki (Nociceptin receptor) was 119 nM and 345 nM and the Ki (Mu-type opioid receptor) was 1430 nM and 8530 nM.

For `CN(C)[C@]1(c2ccccc2)CC[C@]2(CC1)CN(CCS(C)(=O)=O)C(=O)N2CC1CCC1`, the Ki (Mu-type opioid receptor) was 37.4 nM.

Several values for one entry are separate records, joined by “and”; a condition that tells them apart may be missing. Equal entries are not always repeated.
